Reference: ChEMBL document CHEMBL3425489, “X-ray crystal structures of Escherichia coli RNA polymerase with switch region binding inhibitors enable rational design of squaramides with an improved fraction unbound to human plasma protein” (J Med Chem, 2015)

Assay: Inhibition of Escherichia coli switch region of RNA polymerase after 1 hr by transcription-coupled translation assay

**Q.** With `CO[C@H]1/C=C/O[C@@]2(C)Oc3c(C)c(O)c4c(O)c(c(/C=N/N5CCN(C)CC5)c(O)c4c3C2=O)NC(=O)/C(C)=C\C=C\[C@H](C)[C@H](O)[C@@H](C)[C@@H](O)[C@@H](C)[C@H](OC(C)=O)[C@@H]1C` [RIFAMPIN] as the compound, how does the pIC50 read?
**A.** 7.85

pIC50: −log10 of the molar value.
